Data published in patent US20260382623A1, “NOVEL COMPOUND FOR INHIBITING PROTEIN KINASES AND PHARMACEUTICAL COMPOSITION COMPRISING SAME” (published 2026).

Chains of the proteins cited; added tags and fusions are not shown. Residues count along the entry.
UniProt P07949, 29-1114 limits assumed: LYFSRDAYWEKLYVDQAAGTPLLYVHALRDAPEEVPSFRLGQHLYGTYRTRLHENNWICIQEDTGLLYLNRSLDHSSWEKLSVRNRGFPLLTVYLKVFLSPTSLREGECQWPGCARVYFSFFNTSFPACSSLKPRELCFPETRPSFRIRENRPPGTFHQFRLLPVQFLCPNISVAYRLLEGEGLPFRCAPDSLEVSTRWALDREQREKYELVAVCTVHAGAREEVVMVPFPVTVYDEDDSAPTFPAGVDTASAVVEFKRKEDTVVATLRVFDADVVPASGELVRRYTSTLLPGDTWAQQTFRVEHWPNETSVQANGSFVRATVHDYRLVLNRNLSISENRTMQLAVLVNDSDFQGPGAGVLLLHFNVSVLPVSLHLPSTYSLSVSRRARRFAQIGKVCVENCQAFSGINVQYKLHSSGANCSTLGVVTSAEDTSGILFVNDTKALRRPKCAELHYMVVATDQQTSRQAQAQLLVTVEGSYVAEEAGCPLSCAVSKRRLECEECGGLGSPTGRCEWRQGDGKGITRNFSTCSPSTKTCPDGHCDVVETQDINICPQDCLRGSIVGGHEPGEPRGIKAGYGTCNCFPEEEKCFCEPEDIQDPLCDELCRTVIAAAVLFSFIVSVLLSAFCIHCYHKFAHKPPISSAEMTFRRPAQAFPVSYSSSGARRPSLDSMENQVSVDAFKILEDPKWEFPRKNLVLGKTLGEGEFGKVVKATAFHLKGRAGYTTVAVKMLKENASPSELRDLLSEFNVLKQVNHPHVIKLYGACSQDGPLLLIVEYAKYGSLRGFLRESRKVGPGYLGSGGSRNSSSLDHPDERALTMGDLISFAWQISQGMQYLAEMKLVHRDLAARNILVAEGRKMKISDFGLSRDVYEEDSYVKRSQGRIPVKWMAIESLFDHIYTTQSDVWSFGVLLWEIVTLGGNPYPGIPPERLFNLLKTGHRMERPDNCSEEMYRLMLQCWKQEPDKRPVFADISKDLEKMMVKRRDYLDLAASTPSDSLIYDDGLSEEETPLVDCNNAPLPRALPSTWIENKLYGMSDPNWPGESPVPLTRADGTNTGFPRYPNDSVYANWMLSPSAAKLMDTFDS
UniProt Q14289, whole entry: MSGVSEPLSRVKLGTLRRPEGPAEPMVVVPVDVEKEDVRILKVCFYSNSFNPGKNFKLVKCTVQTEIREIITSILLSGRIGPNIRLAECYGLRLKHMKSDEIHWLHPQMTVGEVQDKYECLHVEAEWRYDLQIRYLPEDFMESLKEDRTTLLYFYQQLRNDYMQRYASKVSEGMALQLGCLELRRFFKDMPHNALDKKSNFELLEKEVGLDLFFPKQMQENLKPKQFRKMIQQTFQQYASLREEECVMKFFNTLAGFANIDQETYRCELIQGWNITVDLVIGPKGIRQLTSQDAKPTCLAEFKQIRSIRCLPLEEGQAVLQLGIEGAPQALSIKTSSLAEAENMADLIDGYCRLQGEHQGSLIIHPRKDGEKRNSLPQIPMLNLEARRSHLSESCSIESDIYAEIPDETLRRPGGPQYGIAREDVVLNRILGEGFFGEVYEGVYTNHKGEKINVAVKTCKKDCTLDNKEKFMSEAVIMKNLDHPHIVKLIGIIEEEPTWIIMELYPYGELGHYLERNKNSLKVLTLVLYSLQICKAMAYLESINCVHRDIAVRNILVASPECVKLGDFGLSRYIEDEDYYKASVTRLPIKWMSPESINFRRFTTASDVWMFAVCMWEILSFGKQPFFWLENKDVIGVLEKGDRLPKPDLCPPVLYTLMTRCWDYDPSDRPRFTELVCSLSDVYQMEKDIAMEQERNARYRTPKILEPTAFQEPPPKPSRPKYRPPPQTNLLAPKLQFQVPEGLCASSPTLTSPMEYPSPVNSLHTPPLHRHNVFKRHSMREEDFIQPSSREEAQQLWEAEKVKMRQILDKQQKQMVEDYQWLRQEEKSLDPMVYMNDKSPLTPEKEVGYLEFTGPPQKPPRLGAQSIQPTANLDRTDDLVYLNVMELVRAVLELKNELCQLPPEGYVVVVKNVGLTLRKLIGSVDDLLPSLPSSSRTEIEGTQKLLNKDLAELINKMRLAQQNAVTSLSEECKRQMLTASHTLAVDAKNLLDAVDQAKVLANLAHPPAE
UniProt P41240, whole entry: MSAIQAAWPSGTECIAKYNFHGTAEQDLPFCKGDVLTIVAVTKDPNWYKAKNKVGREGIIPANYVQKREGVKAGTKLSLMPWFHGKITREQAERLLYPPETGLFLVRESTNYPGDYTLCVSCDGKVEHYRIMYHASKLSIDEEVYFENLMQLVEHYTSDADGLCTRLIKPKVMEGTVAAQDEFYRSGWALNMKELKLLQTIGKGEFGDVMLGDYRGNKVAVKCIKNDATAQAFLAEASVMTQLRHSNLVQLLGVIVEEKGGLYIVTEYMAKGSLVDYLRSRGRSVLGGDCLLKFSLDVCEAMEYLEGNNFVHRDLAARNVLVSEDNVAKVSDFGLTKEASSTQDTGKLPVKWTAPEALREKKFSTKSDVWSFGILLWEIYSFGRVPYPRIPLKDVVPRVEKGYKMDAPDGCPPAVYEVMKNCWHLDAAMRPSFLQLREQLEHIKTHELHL
UniProt Q9H0K1, whole entry: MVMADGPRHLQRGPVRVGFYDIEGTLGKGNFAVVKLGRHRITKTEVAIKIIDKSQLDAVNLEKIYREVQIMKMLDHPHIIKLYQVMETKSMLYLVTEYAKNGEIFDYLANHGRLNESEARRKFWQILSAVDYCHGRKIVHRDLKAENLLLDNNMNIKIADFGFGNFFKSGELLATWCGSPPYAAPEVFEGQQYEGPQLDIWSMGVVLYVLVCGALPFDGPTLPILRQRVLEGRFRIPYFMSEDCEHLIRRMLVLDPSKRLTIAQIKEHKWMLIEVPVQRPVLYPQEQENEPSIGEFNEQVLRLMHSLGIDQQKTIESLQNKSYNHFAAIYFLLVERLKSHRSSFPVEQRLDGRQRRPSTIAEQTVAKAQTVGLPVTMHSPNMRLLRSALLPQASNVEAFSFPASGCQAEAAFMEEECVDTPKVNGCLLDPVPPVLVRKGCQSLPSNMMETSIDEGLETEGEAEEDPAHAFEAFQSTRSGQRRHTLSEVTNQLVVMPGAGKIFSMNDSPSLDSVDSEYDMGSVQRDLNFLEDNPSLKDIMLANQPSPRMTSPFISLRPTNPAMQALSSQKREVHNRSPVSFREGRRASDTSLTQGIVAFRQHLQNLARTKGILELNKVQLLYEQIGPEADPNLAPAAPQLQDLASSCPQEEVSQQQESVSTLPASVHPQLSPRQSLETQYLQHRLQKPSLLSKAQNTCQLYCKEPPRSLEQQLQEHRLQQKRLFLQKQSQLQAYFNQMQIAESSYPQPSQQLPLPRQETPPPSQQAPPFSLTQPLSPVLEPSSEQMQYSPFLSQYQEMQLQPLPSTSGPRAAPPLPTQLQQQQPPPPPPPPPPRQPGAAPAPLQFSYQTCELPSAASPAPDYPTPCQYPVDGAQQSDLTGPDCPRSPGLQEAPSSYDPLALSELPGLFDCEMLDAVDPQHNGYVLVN
UniProt P53779, whole entry: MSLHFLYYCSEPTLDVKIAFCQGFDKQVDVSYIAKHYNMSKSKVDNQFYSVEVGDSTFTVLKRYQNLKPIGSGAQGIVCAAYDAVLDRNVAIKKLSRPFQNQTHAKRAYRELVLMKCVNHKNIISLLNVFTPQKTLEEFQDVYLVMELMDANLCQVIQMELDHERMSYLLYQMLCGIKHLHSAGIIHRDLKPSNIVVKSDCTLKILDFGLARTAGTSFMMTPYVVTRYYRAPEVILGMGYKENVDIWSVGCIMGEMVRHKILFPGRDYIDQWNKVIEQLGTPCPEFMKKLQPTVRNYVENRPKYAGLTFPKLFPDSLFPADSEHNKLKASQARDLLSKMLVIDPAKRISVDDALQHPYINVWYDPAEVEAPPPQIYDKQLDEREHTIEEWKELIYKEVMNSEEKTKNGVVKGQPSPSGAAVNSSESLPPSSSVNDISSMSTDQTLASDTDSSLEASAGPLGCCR
UniProt P06239, whole entry: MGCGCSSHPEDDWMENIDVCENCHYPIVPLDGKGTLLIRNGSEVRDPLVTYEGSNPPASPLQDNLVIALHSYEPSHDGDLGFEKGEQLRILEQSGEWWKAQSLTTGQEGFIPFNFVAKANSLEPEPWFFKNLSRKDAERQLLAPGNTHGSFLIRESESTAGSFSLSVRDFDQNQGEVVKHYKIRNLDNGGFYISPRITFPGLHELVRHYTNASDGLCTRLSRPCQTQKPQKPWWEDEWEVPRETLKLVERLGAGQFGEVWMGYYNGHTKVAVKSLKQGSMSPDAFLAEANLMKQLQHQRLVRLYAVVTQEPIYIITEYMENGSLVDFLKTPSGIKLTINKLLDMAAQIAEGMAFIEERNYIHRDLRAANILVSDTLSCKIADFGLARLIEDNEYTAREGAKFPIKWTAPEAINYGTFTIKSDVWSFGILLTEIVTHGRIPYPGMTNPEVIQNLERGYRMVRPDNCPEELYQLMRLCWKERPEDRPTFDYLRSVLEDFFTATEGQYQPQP
UniProt Q8NE63, whole entry: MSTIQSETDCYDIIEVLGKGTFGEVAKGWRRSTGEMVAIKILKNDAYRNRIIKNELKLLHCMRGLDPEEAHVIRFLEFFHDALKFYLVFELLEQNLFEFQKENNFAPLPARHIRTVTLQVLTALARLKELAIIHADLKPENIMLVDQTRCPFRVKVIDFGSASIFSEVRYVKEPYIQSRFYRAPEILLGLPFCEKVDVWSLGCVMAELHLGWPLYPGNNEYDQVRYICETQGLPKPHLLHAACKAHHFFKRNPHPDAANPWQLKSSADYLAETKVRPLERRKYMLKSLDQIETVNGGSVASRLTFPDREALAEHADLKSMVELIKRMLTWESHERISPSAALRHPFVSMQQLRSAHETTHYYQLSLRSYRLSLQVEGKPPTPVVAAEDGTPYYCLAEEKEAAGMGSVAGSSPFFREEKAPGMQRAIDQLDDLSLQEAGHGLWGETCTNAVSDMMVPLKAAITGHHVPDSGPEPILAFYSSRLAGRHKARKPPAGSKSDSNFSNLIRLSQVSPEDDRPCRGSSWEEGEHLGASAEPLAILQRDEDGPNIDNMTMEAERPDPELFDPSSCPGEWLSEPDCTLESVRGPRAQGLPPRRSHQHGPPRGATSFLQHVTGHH
UniProt Q92918, whole entry: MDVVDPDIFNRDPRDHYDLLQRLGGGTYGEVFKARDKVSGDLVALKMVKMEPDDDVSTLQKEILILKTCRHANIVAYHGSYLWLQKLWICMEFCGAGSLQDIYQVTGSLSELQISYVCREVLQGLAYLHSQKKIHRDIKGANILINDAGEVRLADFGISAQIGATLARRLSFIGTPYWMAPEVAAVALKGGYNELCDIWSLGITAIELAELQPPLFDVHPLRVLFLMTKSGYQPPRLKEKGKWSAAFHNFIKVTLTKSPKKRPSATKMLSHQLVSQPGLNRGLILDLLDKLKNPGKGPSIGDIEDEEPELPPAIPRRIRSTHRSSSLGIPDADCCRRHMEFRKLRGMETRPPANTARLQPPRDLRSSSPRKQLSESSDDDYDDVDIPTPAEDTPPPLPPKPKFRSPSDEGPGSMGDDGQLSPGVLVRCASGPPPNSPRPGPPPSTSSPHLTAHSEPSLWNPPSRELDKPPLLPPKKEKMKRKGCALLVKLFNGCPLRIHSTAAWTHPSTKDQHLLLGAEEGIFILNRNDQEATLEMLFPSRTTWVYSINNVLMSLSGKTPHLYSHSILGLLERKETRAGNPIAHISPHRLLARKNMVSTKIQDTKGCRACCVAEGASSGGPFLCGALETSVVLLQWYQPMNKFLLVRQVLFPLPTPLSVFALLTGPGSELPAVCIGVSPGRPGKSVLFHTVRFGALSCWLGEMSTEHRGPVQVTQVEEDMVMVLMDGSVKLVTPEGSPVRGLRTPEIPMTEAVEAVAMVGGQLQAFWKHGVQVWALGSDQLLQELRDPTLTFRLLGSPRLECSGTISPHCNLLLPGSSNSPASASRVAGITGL
UniProt Q9Y572, whole entry: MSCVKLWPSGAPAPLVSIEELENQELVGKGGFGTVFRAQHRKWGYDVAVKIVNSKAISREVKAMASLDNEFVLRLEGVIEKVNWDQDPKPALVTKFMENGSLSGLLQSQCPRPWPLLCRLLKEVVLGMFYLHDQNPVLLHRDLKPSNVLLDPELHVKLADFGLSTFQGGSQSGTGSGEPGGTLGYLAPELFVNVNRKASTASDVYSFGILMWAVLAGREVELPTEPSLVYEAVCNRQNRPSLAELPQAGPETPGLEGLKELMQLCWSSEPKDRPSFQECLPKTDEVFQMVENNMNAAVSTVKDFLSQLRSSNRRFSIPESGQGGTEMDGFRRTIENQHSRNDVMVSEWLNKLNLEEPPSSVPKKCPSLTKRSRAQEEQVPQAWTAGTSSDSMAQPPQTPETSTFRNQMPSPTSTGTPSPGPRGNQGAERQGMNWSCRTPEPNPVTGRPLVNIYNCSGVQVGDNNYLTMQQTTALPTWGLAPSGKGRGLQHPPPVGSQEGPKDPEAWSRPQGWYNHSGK

Experiments:
[1] = target: RET (Homo sapiens, UniProt P07949); assay: Kinase panel inhibition, RET; details: 1 μM
[2] = tested on: A549; assay: Cell growth inhibition, A549 (CCK-8); details: read-out: Cell growth inhibition GI50, A549, 72 hours
[3] = target: PKACG (Homo sapiens, UniProt P22612); assay: Kinase panel inhibition, PKACG; details: 1 μM
[4] = tested on: HT-29; assay: Cell growth inhibition, HT-29 (CCK-8); details: read-out: Cell growth inhibition GI50, HT-29, 72 hours
[5] = target: PYK2 (Homo sapiens, UniProt Q14289); assay: Kinase panel inhibition, PYK2; details: 1 μM
[6] = target: full kinase panel (Homo sapiens, UniProt O94804); assay: Full kinase panel inhibition by Example compounds 8 and 51 at 1 μM (Tables 11 to 14; kinase named in each table line); details: LOK/STK10
[7] = target: full kinase panel (Homo sapiens, UniProt P41240); assay: as above; details: CSK
[8] = target: full kinase panel (Homo sapiens, UniProt Q9Y2U5); assay: as above; details: MEKK2
[9] = target: full kinase panel (Homo sapiens, UniProt Q9H0K1); assay: as above; details: SIK2
[10] = target: full kinase panel (Homo sapiens, UniProt Q02779); assay: as above; details: MLK2/MAP3K10
[11] = target: full kinase panel (Homo sapiens, UniProt P53779); assay: as above; details: JNK3
[12] = target: full kinase panel (Homo sapiens, UniProt P00519); assay: as above; details: ABL1
[13] = target: full kinase panel (Homo sapiens, UniProt P06239); assay: as above; details: LCK
[14] = target: full kinase panel (Homo sapiens, UniProt P29320); assay: as above; details: EPHA3
[15] = target: full kinase panel (Homo sapiens, UniProt P43405); assay: as above; details: SYK
[16] = target: full kinase panel (Homo sapiens, UniProt P45984); assay: as above; details: JNK2
[17] = target: full kinase panel (Homo sapiens, UniProt P80192); assay: as above; details: MLK1/MAP3K9
[18] = target: full kinase panel (Homo sapiens, UniProt Q9NRM7); assay: as above; details: LATS2
[19] = target: full kinase panel (Homo sapiens, UniProt Q8NE63); assay: as above; details: HIPK4
[20] = target: full kinase panel (Homo sapiens, UniProt P07333); assay: as above; details: FMS
[21] = target: full kinase panel (Homo sapiens, UniProt P17948); assay: as above; details: FLT1/VEGFR1
[22] = target: full kinase panel (Homo sapiens, UniProt Q56UN5); assay: as above; details: YSK4/MAP3K19
[23] = target: full kinase panel (Homo sapiens, UniProt P23443); assay: as above; details: P70S6K/RPS6KB1
[24] = target: full kinase panel (Homo sapiens, UniProt P42681); assay: as above; details: TXK
[25] = target: full kinase panel (Homo sapiens, UniProt Q92918); assay: as above; details: HPK1/MAP4K1
[26] = target: full kinase panel (Homo sapiens, UniProt Q16832); assay: as above; details: DDR2
[27] = target: full kinase panel (Homo sapiens, UniProt Q5S007); assay: as above; details: LRRK2
[28] = target: full kinase panel (Homo sapiens, UniProt Q15375); assay: as above; details: EPHA7
[29] = target: full kinase panel (Homo sapiens, UniProt Q9Y572); assay: as above; details: RIPK3
[30] = target: full kinase panel (Homo sapiens, UniProt Q8NG66); assay: as above; details: NEK11
[31] = target: full kinase panel (Homo sapiens, UniProt Q06418); assay: as above; details: TYRO3/SKY
[32] = target: full kinase panel (Homo sapiens, UniProt Q15303); assay: as above; details: ERBB4/HER4
[33] = target: full kinase panel (Homo sapiens, UniProt P10721); assay: as above; details: C-KIT
[34] = target: full kinase panel (Homo sapiens, UniProt Q9UKE5); assay: as above; details: TNIK

In the case of Cc1ccc(Nc2ncc3c(n2)C2(CC2)C(=O)N(c2cc(NC(=O)c4cccc(C(F)(F)F)c4)ccc2C)C3)cn1, the “kinase inhibition (residual enzyme activity)” value [1] is reported as “◯ (residual enzyme activity values were 40% or less, i.e., inhibited by 60% or more)”, the GI50 [2] is reported as < 5 µM and the “kinase inhibition (residual enzyme activity)” value [3] is reported as “◯ (residual enzyme activity values were 40% or less, i.e., inhibited by 60% or more)”. For the same compound, the GI50 [4] was < 5 µM, the “kinase inhibition (residual enzyme activity)” value [5] was “◯ (residual enzyme activity values were 40% or less, i.e., inhibited by 60% or more)” and the “kinase inhibition (residual enzyme activity)” value [6] was “◯ (residual enzyme activity values were 40% or less, i.e., inhibited by 60% or more)”. For the same compound, the “kinase inhibition (residual enzyme activity)” value [7] was “◯ (residual enzyme activity values were 40% or less, i.e., inhibited by 60% or more)”, the “kinase inhibition (residual enzyme activity)” value [8] was “◯ (residual enzyme activity values were 40% or less, i.e., inhibited by 60% or more)” and the “kinase inhibition (residual enzyme activity)” value [9] was “◯ (residual enzyme activity values were 40% or less, i.e., inhibited by 60% or more)”. The “kinase inhibition (residual enzyme activity)” value [10] was “◯ (residual enzyme activity values were 40% or less, i.e., inhibited by 60% or more)”, the “kinase inhibition (residual enzyme activity)” value [11] was “◯ (residual enzyme activity values were 40% or less, i.e., inhibited by 60% or more)” and the “kinase inhibition (residual enzyme activity)” value [12] was “◯ (residual enzyme activity values were 40% or less, i.e., inhibited by 60% or more)”. The “kinase inhibition (residual enzyme activity)” value [13] was “◯ (residual enzyme activity values were 40% or less, i.e., inhibited by 60% or more)”, the “kinase inhibition (residual enzyme activity)” value [14] was “◯ (residual enzyme activity values were 40% or less, i.e., inhibited by 60% or more)” and the “kinase inhibition (residual enzyme activity)” value [15] was “◯ (residual enzyme activity values were 40% or less, i.e., inhibited by 60% or more)”. For the same compound, the “kinase inhibition (residual enzyme activity)” value [16] was “◯ (residual enzyme activity values were 40% or less, i.e., inhibited by 60% or more)”, the “kinase inhibition (residual enzyme activity)” value [17] was “◯ (residual enzyme activity values were 40% or less, i.e., inhibited by 60% or more)” and the “kinase inhibition (residual enzyme activity)” value [18] was “◯ (residual enzyme activity values were 40% or less, i.e., inhibited by 60% or more)”. The “kinase inhibition (residual enzyme activity)” value [19] was “◯ (residual enzyme activity values were 40% or less, i.e., inhibited by 60% or more)”, the “kinase inhibition (residual enzyme activity)” value [20] was “◯ (residual enzyme activity values were 40% or less, i.e., inhibited by 60% or more)” and the “kinase inhibition (residual enzyme activity)” value [21] was “◯ (residual enzyme activity values were 40% or less, i.e., inhibited by 60% or more)”. The “kinase inhibition (residual enzyme activity)” value [22] was “◯ (residual enzyme activity values were 40% or less, i.e., inhibited by 60% or more)”, the “kinase inhibition (residual enzyme activity)” value [23] was “◯ (residual enzyme activity values were 40% or less, i.e., inhibited by 60% or more)” and the “kinase inhibition (residual enzyme activity)” value [24] was “◯ (residual enzyme activity values were 40% or less, i.e., inhibited by 60% or more)”. The “kinase inhibition (residual enzyme activity)” value [25] was “◯ (residual enzyme activity values were 40% or less, i.e., inhibited by 60% or more)”, the “kinase inhibition (residual enzyme activity)” value [26] was “◯ (residual enzyme activity values were 40% or less, i.e., inhibited by 60% or more)” and the “kinase inhibition (residual enzyme activity)” value [27] was “◯ (residual enzyme activity values were 40% or less, i.e., inhibited by 60% or more)”. For the same compound, the “kinase inhibition (residual enzyme activity)” value [28] was “◯ (residual enzyme activity values were 40% or less, i.e., inhibited by 60% or more)”, the “kinase inhibition (residual enzyme activity)” value [29] was “◯ (residual enzyme activity values were 40% or less, i.e., inhibited by 60% or more)” and the “kinase inhibition (residual enzyme activity)” value [30] was “◯ (residual enzyme activity values were 40% or less, i.e., inhibited by 60% or more)”. The “kinase inhibition (residual enzyme activity)” value [31] was “◯ (residual enzyme activity values were 40% or less, i.e., inhibited by 60% or more)”, the “kinase inhibition (residual enzyme activity)” value [32] was “◯ (residual enzyme activity values were 40% or less, i.e., inhibited by 60% or more)” and the “kinase inhibition (residual enzyme activity)” value [33] was “◯ (residual enzyme activity values were 40% or less, i.e., inhibited by 60% or more)”. The “kinase inhibition (residual enzyme activity)” value [34] was “◯ (residual enzyme activity values were 40% or less, i.e., inhibited by 60% or more)”.
